Article PMC8919384 (ACS Medicinal Chemistry Letters, 2022)

Columns and labels:
OGD/R-treated HT22 cells [1] = conditions: 10 μM pretreatment 4 h
OGD/R-treated HT22 cells [2] = tested on: OGD/R-treated HT22 cells

Cn1cc(-c2cnc(N)n3nc(-c4ccco4)nc23)ccc1=O [1a]
antiapoptotic Bcl-2 staining (immunofluorescence) (OGD/R-treated HT22 cells [1]): enhanced
mRNA expression of apoptosis markers (p53, Bax, Bcl-2), qRT-PCR (OGD/R-treated HT22 cells [1]): consistent with the protein expression
COX-2 immunofluorescence staining (OGD/R-treated HT22 cells [2]; 10 μM pretreatment 4 h): lack of COX-2
mRNA expression of inflammation markers Nos2, Vcam-1 and II1b, qRT-PCR (OGD/R-treated HT22 cells [2]; 10 μM pretreatment 4 h): consistent with the protein expression
caspase-1 (p20), IL-18 and IL-1β expression (western blot) (OGD/R-treated HT22 cells [2]; 1–10 μM pretreatment 4 h): reduced
